Target: T1, P450RAI-1 (Homo sapiens, UniProt O43174)
T1 construct: expressed in transfected cells; host or cells: HeLa cells, stably transfected, hygromycin selection
T1 sequence (O43174 1-497): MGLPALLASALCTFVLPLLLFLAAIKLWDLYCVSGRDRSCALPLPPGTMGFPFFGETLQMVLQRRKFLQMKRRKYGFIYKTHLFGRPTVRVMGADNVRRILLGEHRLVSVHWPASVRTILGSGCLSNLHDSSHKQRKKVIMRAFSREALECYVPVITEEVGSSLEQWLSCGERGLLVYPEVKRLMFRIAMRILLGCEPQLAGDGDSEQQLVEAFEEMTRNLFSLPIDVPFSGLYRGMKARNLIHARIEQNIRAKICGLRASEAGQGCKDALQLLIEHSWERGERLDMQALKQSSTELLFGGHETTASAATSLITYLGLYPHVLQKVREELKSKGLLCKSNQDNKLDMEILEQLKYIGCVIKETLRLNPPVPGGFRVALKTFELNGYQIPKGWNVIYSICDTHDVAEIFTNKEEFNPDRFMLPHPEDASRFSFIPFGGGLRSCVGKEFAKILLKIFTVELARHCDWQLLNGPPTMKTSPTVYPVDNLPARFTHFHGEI
Test: P450RAI-1 cell-based inhibitor assay
Conditions: P450RAI-1 stably transfected HeLa cells, [3H]-RA metabolism, 3 hours at 37° C.; read-out: P450RAI INHIBITION DATA INTACT HELA IC50

CC(C)c1cc(C#Cc2ccc(CC(=O)O)cc2)ccc1Cn1ccnc1 [Compound 127, [4-(4-Imidazol-1-yl-methyl-3-isopropyl-phenylethynyl)-phenyl]-acetic Acid]
IC50: 400 nM

Reference: patent US6369225B1, “Compounds having activity as inhibitors of cytochrome P450RAI” (Allergan Sales, Inc., priority 2000, dated 2002)
